Reference: patent publication US7179818B2, “Substituted aminoquinuclidine compounds” (Ortho-McNeil Pharmaceutical, Inc., priority 2002, dated 2007)

Chains of the proteins cited; added tags and fusions are not shown. Lines headed by an entry give the natural chain unless they say otherwise; changes in a name come on top.
UniProt P33533, whole entry: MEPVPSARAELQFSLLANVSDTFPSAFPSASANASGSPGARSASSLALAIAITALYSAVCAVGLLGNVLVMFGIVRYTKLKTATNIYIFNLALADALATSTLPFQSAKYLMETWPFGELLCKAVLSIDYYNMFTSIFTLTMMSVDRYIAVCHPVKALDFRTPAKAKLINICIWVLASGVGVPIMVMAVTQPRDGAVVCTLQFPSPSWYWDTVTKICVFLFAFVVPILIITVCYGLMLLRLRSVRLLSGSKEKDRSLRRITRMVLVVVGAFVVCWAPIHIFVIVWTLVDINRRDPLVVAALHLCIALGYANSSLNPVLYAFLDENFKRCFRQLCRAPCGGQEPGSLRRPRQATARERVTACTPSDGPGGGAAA
UniProt P33535, whole entry: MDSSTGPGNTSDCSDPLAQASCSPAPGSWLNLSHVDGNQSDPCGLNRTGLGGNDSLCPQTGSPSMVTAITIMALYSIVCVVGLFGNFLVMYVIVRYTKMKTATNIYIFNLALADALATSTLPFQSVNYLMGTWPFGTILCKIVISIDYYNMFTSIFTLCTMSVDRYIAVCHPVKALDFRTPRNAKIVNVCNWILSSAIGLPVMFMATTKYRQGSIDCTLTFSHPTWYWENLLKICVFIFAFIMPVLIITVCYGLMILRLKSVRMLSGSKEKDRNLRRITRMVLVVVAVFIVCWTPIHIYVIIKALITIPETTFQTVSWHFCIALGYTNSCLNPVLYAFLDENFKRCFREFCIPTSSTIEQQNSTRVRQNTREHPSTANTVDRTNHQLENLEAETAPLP

Key:
[1] = molecular target: T1, δ-opioid receptor (Rattus norvegicus, UniProt P33533); experiment: Rat brain δ-opioid receptor binding assay ([3H]DPDPE); details: rat forebrain membranes, 25° C.
T1 construct: from tissue; host or cells: rat (Wistar) forebrain homogenate, particulate preparation
Description: (§1) Male, Wistar rats (150–250 g, VAF, Charles River, Kingston, N.Y.) are killed by cervical dislocation, and their brains removed and placed immediately in ice cold Tris HCl buffer (50 mM, pH 7.4). The forebrains are separated from the remainder of the brain by a coronal transection, beginning dorsally at the colliculi and passing ventrally through the midbrain-pontine junction. After dissection, the forebrains are homogenized in Tris buffer in a Teflon®-glass homogenizer. The homogenate is diluted to a concentration of 1 g of forebrain tissue per 100 mL Tris buffer and centrifuged at 39,000×G for 10 min. The pellet is resuspended in the same volume of Tris buffer with several brief pulses from a Polytron homogenizer. This particulate preparation is used for the δ-opioid binding assays. Following incubation with the δ-selective peptide ligand [^3H]DPDPE at 25° C., the tube contents are filtered through Whatman GF/B filter sheets on a Brandel cell harvester. The tubes and filters are rinsed three times with 4 mL of 10 mM HEPES (pH 7.4), and the radioactivity associated with the filter circles determined using Formula 989 scintillation fluid (New England Nuclear, Boston, Mass.) in a scintillation counter.
The data are used to calculate either the % inhibition compared to control binding (when only a single concentration of test compound is evaluated) or a Ki value (when a range of concentrations are tested).
% Inhibition was calculated as: […]
(§2) Ki value is calculated using the LIGAND (Munson, P. J. and Rodbard, D., Anal. Biochem. 107: 220–239, 1980) data analysis program.

[2] = molecular target: T2, μ-opioid receptor (Rattus norvegicus, UniProt P33535); experiment: Rat brain μ-opioid receptor binding assay ([3H]DAMGO); details: rat forebrain membranes, 25° C.
T2 construct: from tissue; host or cells: rat (Wistar) forebrain homogenate, particulate preparation
Description: as §1, with “Chades” for “Charles”, “dislocation” for “dislocation,”, “μ-opioid” for “δ-opioid”, “Following incubation with the δ-selective peptide ligand [^3H]DPDPE at 25° C., the tube contents are filtered through Whatman GF/B filter sheets on a Brandel cell harvester.” left out, “7.4)” for “7.4),”
The data are used to calculate either the % inhibition compared to control binding (when only a single concentration of test compound is evaluated) or a Ki value (when a range of concentrations is tested).
% Inhibition is calculated as: […]
as §2

Row | Substance | Ki [1] | Ki [2]
1 | N,N-Diethyl-4-[(3-methoxyphenyl)-(1-azabicyclo[2.2.2]octan-3-amino)]benzamide Fumarate Hydrate[1:1:0.5] [Compound 2] | 115 nM | –
2 | N,N-Diethyl-4-[phenyl-(1-azabicyclo[2.2.2]octan-3-amino)]benzamide Fumarate [Compound 1, N,N-Diethyl-4-[phenyl-(1-azabicyclo[2.2.2]octan-3-amino)]benzamide Fumarate [1:1]] | 98 nM | 10000 nM
3 | N,N-Diethyl-4-[(3-hydoxyphenyl)-(1-azabicyclo[2.2.2]octan-3-amino)]benzamide Fumarate Hydrate[1:1:0.5] [Compound 3] | 3 nM | 160 nM
4 | N,N-Diethyl-4-[phenyl-(cis-2-methyl-1-azabicyclo[2.2.2]octan-3-amino)]benzamide [Compound 9] | 19 nM | 3040 nM
5 | N,N-Diethyl-4-[(2-methoxyphenyl)-(1-azabicyclo[2.2.2]octan-3-amino)]benzamide Hydrochloride [Compound 5, N,N-Diethyl-4-[(2-methoxyphenyl)-(1-azabicyclo[2.2.2]octan-3-amino)]benzamide Hydrochloride [1:1]] | 290 nM | –
6 | N,N-Diethyl-4-[(3-thiomethylphenyl)-(trans-2-methyl-1-azabicyclo[2.2.2]octan-3-amino)]benzamide Fumarate [Compound 10, N,N-Diethyl-4-[(3-thiomethylphenyl)-(trans-2-methyl-1-azabicyclo[2.2.2]octan-3-amino)]benzamide Fumarate [1:1.5]] | 12 nM | 2770 nM
7 | N,N-Diethyl-4-[(3-chlorophenyl)-(1-azabicyclo[2.2.2]octan-3-amino)]benzamide Hydrochloride [Compound 6, N,N-Diethyl-4-[(3-chlorophenyl)-(1-azabicyclo[2.2.2]octan-3-amino)]benzamide Hydrochloride [1:1]] | 171 nM | –
